Source: PubChem BioAssay (National Center for Advancing Translational Sciences (NCATS))
G9a inh = inhibitors of human histone lysine methyltransferase G9a. Q96KQ7. AID 504332. Potency, µM (titrated, usually from 102 µM), for the others: at the highest dose activity, negative = inhibition, usual class: inhibitors. actives 8.8% (n = 350,000). G9a H3K9 monomethylation, AlphaScreen, 2 h; further: potency means the concentration at half of the fitted maximal effect; on the % scale 0 is the no-effect control and ±100 the full control effect; nearly all actives have a fitted effect of over 75% in size
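Methyltransferase reactions run at room temperature for 2 h (20 nM enzyme, 500 nM biotin-H3K9 peptide, 20 uM SAM) after a 15 min compound preincubation; product detected by AlphaScreen beads and anti-H3K9me1 antibody.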
miR-21 reporter = raises the signal of a miR-21 reporter | HeLa miR-21 FLuc reporter, luciferase, 48 h | Potency, µM (highest dose often 38.3 µM), inactives show at the highest dose reporter change, positive = more light | 340,000 tested, under 10 active | AID 2288; active = well fitted rising curve with a large enough effect; inconclusive = small, poorly fitted or top-dose-only effect; inactive = no such curve, though single readings can be large or run the other way;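 note: % of control where 0% means no effect; miR-21 action dims this reporter so a rising signal means less miR-21 action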
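Using DMEM plus 10% FBS, HeLa miR-21-FLuc cells are incubated with test compounds (final up to about 40uM) for 48 hours; firefly luciferase signal is then imaged following reagent-mediated lysis.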
JMJD2E inh = inhibitors of human JMJD2E histone demethylase; B2RXH2; actives 1.6% (n = 230,000); Potency, µM (top dose mostly 57.1 µM), for the others: at the top dose activity change, negative = inhibition, most hits filed as inhibitors; AID 2147; JMJD2E catalytic domain, FDH-coupled NADH fluorescence (FDH is formaldehyde dehydrogenase);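 further: potency means the concentration at half of the fitted maximal effect; 0% = wells with enzyme and -100% = buffer wells without enzyme; nearly all actives have a fitted effect of over 50% in size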
LMNA splice mod = modulators of lamin A splicing; HeLa LMNA splicing GFP/RFP minigene ratio, 48 h; Potency, µM (series often up to 46.1 µM), for inactives: top-dose ratio change, negative = inhibition, actives largely listed as inhibitors; actives 0.01% (n = 200,000); active means well fitted inhibition curve with a large enough effect in the signal ratio, with a control signal flat, not every such curve was filed as active; inconclusive means small, poorly fitted or top-dose-only effect, or effect the other way, or a change in a side signal; the % refers to the signal ratio; further: potency means the concentration at half of the fitted maximal effect; on the % scale 0 is the no-effect control and ±100 the full control effect
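S3 HeLa stable clones carrying a lamin A-EGFP splicing minigene plus DsRed2 were seeded at 600 cells/well in Opti-MEM with 2% FBS, pin-dosed and incubated 48 h at 37°C. Acumen cytometry (488 nm) gave the GFP/RFP total-intensity ratio.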
Sfp PPTase inh = inhibitors of Bacillus subtilis Sfp phosphopantetheinyl transferase. Q9F4F7. Biochemical Sfp PPTase activity, qHTS. Potency, µM, for the others: max response, negative = inhibition, most hits filed as inhibitors. actives 3.5% (n = 310,000). AID 1490; active means well fitted inhibition curve with a large enough effect; inconclusive means small, poorly fitted or top-dose-only effect, or another doubt; inactive means no such curve, though single readings can be large or run the other way;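 further: the enzyme is Sfp with the accession as filed and its product quenches rhodamine fluorescence; potency means the concentration at half of the fitted maximal effect; 0% = enzyme reaction without inhibitor and -100% = no enzyme wells; top concentration of the series not given in the record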
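After 15 min at room temperature with compound, 15 nM Sfp received 5 uM rhodamine-CoA plus 12.5 uM BHQ-2-ybbR (50 mM Hepes pH 7.6, 10 mM MgCl2). Rate came from the fluorescence difference over 30 min, ex 525/em 598 nm.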
ALDH1A1 block = blocks purified human ALDH1A1 activity; P00352; Purified ALDH1A1, NADH fluorescence, propionaldehyde substrate; Potency, µM (titrated, usually from 75.3 µM), for the others: at the highest dose activity, negative = inhibition, usual class: inhibitors; actives 7.3% (n = 220,000); AID 1030; active means well fitted inhibition curve with a large enough effect, not every such curve was filed as active; inconclusive means small, poorly fitted or top-dose-only effect, or another doubt; inactive means no such curve, though single readings can be large or run the other way;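 further: potency means the concentration at half of the fitted maximal effect; plate controls were no enzyme wells and a reference inhibitor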
Numbers without * were called inactive; [ ] = remark or other dose. An excerpt weighted towards active compounds, which were near 13% of everything screened. Unless noted, the call rests on the fitted dose curve; in most records, active means well fitted curve in the direction sought with a large enough effect; inconclusive means small, poorly fitted or top-dose-only effect, or another doubt; inactive means no such curve, though single readings can be large; an effect the other way counts as inactive or inconclusive.

Start of the data: the first 2 records, ahead of the listing:
`COC(=O)CSc1nc2ccc(N)cc2s1` gave G9a inh 17.8µM*, miR-21 reporter -2.7%, JMJD2E inh -18.0%, LMNA splice mod inconclusive, Sfp PPTase inh -24.0% and ALDH1A1 block inconclusive.
For O=[N+]([O-])c1ccc(CSc2nnc(SCc3ccc(Cl)cc3)s2)cc1 the results were G9a inh 35.5µM*, miR-21 reporter -12.0%, JMJD2E inh -4.5%, LMNA splice mod inconclusive, Sfp PPTase inh 16.0% and ALDH1A1 block inconclusive.

The list itself, repeating the preview:
`COC(=O)CSc1nc2ccc(N)cc2s1` gave G9a inh 17.8µM*, miR-21 reporter -2.7%, JMJD2E inh -18.0%, LMNA splice mod inconclusive, Sfp PPTase inh -24.0% and ALDH1A1 block inconclusive.
For O=[N+]([O-])c1ccc(CSc2nnc(SCc3ccc(Cl)cc3)s2)cc1 the results were G9a inh 35.5µM*, miR-21 reporter -12.0%, JMJD2E inh -4.5%, LMNA splice mod inconclusive, Sfp PPTase inh 16.0% and ALDH1A1 block inconclusive.
For Nc1ccc2nc(SCc3ccc([N+](=O)[O-])cc3)sc2c1 the results were G9a inh 39.8µM*, miR-21 reporter -23.6%, JMJD2E inh 0.4%, LMNA splice mod 15.3%, Sfp PPTase inh -9.1% and ALDH1A1 block inconclusive.
For CCOC(=O)CSc1nc2ccc(NC(C)=O)cc2s1 the results were G9a inh 23.5%, miR-21 reporter -3.4%, JMJD2E inh 6.5%, LMNA splice mod 2.1%, Sfp PPTase inh 8.0% and ALDH1A1 block 6.3%.
COc1ccc(CSc2nnc(N)s2)cc1F was read as G9a inh 44.7µM*, miR-21 reporter -36.7%, JMJD2E inh 1.7%, LMNA splice mod -7.2%, Sfp PPTase inh 5.5% and ALDH1A1 block -71.5%.
CC1=C(C(=O)Nc2ccc(Cl)cc2)C(c2cccs2)n2nc(SCc3cccc(C)c3)nc2N1 (configuration not stated) was read as G9a inh 9.1%[59 µM] and miR-21 reporter -1.6%.
CC(C)CCNC(=O)NC(=O)CSc1nnc2ccccn12 was read as G9a inh 4.7%[59 µM], miR-21 reporter 2.8%, JMJD2E inh 0.4%, LMNA splice mod 18.7%, Sfp PPTase inh 1.3% and ALDH1A1 block inconclusive.
For CC(C)CNC(=O)CSc1nnc2ccccn12 the results were G9a inh 44.7µM*, miR-21 reporter -0.1%, JMJD2E inh inconclusive, Sfp PPTase inh 17.6% and ALDH1A1 block -3.9%.
For Cc1ccc(CCNC(=O)c2sc3ncccc3c2-n2c(C)ccc2C)cc1 the results were G9a inh -3.4%[59 µM], miR-21 reporter 6.5% and LMNA splice mod inconclusive.
For CC1=Nc2cccc3cccc(c23)N1 the results were G9a inh 25.1µM*, miR-21 reporter -11.0%, JMJD2E inh -15.5%, LMNA splice mod inconclusive, Sfp PPTase inh inconclusive and ALDH1A1 block 0.3%.
Screening Nc1ccc(C2=Nc3cccc4cccc(c34)N2)cc1 returned G9a inh inconclusive, miR-21 reporter -10.7%, JMJD2E inh -5.4%, LMNA splice mod inconclusive, Sfp PPTase inh 8.8% and ALDH1A1 block -5.7%.
Screening COc1cccc(C2=Nc3cccc4cccc(c34)N2)c1 returned G9a inh 15.8µM*, miR-21 reporter -2.2%, JMJD2E inh 4.2%, LMNA splice mod inconclusive, Sfp PPTase inh -17.2% and ALDH1A1 block inconclusive.
For c1coc(C2=Nc3cccc4cccc(c34)N2)c1 the results were G9a inh 39.8µM*, miR-21 reporter 1.3%, JMJD2E inh -6.8%, Sfp PPTase inh -25.5% and ALDH1A1 block inconclusive.
For c1cc2c3c(cccc3c1)NC1(CCC3(CC1)Nc1cccc4cccc(c14)N3)N2 the results were G9a inh 24.9%[0.501 µM], miR-21 reporter 29.4%, JMJD2E inh inconclusive, Sfp PPTase inh inconclusive and ALDH1A1 block inconclusive.
For CC1=C(C#N)C(C(F)(F)F)(C(F)(F)F)N=C(c2ccco2)N1 the results were G9a inh -33.8%[12.7 µM], miR-21 reporter 20.0%, JMJD2E inh -0.2%, LMNA splice mod -3.1%, Sfp PPTase inh 16.5% and ALDH1A1 block 5.5%.
Cc1cccc(-c2noc(-c3ccc(NC4CCCC4)c([N+](=O)[O-])c3)n2)c1 was read as G9a inh -28.3%[59 µM] and miR-21 reporter -4.7%.
